Measured values from ChEMBL document CHEMBL4311942, “Design of Trp-Rich Dodecapeptides with Broad-Spectrum Antimicrobial Potency and Membrane-Disruptive Mechanism” (J Med Chem, 2019).

Assay: Resistance index, ratio of MIC for antibacterial activity against ciprofloxacin-resistant Escherichia coli to MIC for Escherichia coli ATCC 25922 incubated for 18 to 24 hrs by broth microdilution method
Assay type: functional

With CC(C)C[C@H](NC(=O)[C@H](CCCNC(=N)N)NC(=O)[C@H](Cc1c[nH]c2ccccc12)NC(=O)[C@H](CCCNC(=N)N)NC(=O)[C@@H](NC(=O)[C@H](CCCCN)NC(=O)[C@H](Cc1c[nH]c2ccccc12)NC(=O)[C@H](CCCNC(=N)N)NC(=O)[C@H](CC(C)C)NC(=O)[C@H](CCCNC(=N)N)NC(=O)[C@@H](N)Cc1c[nH]c2ccccc12)[C@@H](C)O)C(=O)N[C@@H](CCCCN)C(N)=O the Ratio was 1.
